Reference: patent US6906074B2, “2-phenylpiperazine derivatives” (Nippon Zoki Pharmaceutical Co., Ltd., priority 2002, dated 2005)

By UniProt entry, the sequences of proteins in these tests, tags left out.
UniProt P25103, whole entry, looked up: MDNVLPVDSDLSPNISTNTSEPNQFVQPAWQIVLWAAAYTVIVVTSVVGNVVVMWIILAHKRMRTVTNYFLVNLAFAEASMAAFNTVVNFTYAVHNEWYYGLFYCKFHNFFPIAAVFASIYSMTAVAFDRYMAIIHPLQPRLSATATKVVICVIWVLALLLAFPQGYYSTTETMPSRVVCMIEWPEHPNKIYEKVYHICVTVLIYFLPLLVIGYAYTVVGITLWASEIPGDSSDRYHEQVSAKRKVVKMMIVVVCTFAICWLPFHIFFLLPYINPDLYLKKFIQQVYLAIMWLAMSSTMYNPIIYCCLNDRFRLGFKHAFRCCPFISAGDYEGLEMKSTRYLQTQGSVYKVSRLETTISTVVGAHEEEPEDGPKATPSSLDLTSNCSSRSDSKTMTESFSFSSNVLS

Target: human NK1 receptors (Homo sapiens, UniProt P25103)
Experiment: Binding assay for human NK1 receptors ((3H)-Sar9-SP, human NK1-CHO cells)
Settings: (3H)-Sar9-SP 0.3 nmol/L

O=C1CN(Cc2nn(P(=O)(O)O)c(=O)[nH]2)[C@@H](c2ccccc2)[C@@H](COCc2cc(C(F)(F)F)cc(C(F)(F)F)c2)N1
IC50: 30 nM
